Test system: MXT mouse mammary tumor
Assay: Cisplatin-treated MXT tumor-bearing animals, human albumin (separate experiments, data not shown)
Format: in vivo
Settings: 16-mg per 1-kg s.c.
Procedure: Experiment 2. The commercial PALP used in this model for Exp. 1 was composed of PALP (˜10%), TF (˜12%), AT (˜30%), albumin (˜35%) and the degradation products of TF (˜13%). […] In this experiment, it was determined whether the other two major proteins, i.e. TF and AT, present in the commercial PALP preparation in addition to PALP, also influence cisplatin-induced loss of body weight or not. The mouse MXT mammary tumor was developed as described in Example 3. In the first group, animals remained untreated during the whole observation period. In the second group, starting on the 7th day after tumor implantation, mice were administered 3-mg per 1-kg of cisplatin i.p. 6-times every second day. […]

For “human albumin: human albumin, component of commercial PALP”, the “Effect on body weight in cisplatin-treated MXT tumor-bearing animals” value was “did not alter body weight”.

Reference: patent US20080098491A1, “MOUSE MODELS TO STUDY CACHEXIA” (ZOLTAN LABORATORIES LLC, priority 2006, published 2008)
